Laboratory results published in patent US4710498A, “Pyridyloxy derivatives” (Ikeda Mohando Co., Ltd., priority 1984, dated 1987).

Protein sequences, listed by entry. Tags and fused reporters are not part of them.
UniProt P47747, whole entry: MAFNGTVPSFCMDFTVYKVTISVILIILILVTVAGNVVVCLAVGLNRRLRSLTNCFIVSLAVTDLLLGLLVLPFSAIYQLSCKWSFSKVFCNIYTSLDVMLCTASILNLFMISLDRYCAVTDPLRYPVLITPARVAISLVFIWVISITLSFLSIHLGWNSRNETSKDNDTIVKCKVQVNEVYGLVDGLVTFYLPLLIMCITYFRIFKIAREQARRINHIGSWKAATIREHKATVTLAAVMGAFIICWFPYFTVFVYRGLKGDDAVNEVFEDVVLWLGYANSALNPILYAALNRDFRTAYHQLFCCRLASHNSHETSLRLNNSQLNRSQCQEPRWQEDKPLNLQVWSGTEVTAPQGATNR

Molecular target: T1, Histamine H2 -Receptor (Cavia porcellus, UniProt P47747)
T1 construct: from tissue; host or cells: isolated right atrium of male Hartley guinea pig
Assay: biochemical
Parameters: species or system male Hartley guinea pig
Procedure: A male Hartley guinea pig having a body weight of about 400 g was killed by cervical dislocation, and the atrium thereof was isolated and was suspended in an organ bath containing […] of a modified Ringer solution and subjected to a tension of 1 g. The number of heart beats under such condition was recorded using a polygraph.
Initially, from 1×10^-7 mol to 3×10^-4 mol of histamine was allowed to act accumulatively to depict the curve of the dosage-reaction relationship. Likewise, the curve of the dosage of histamine-reaction relationship was depicted in the presence of 5×10^-7 mol to 1×10^-6 mol of the test sample which was injected 3 minutes before. The negative logarithm (pA2) of the molar concentration of the test sample required for moving the curve obtained by single administration of histamine parallel to the right side by a two-times concentration was calculated.

With CN/C(=N/CCSCc1nc[nH]c1C)NC#N [Cimetidine, reference compound] the Kb was 550 nM.
